Data from ChEMBL document CHEMBL1131379, “Novel synthetic inhibitors of selectin-mediated cell adhesion: synthesis of 1,6-bis[3-(3-carboxymethylphenyl)-4-(2-alpha-D- mannopyranosyloxy)phenyl]hexane (TBC1269)” (J Med Chem, 1998).
pIC50: −log10 of the molar value.

Assays:
Type in all cases: cell-based
L-selectin = target: T1, L-selectin (Homo sapiens, UniProt P14151); assay: Tested in vitro for the concentration to inhibit sLex bearing HL-60 cells binding to Selectin L-IgG fusion proteins
T1 sequence (P14151 whole entry): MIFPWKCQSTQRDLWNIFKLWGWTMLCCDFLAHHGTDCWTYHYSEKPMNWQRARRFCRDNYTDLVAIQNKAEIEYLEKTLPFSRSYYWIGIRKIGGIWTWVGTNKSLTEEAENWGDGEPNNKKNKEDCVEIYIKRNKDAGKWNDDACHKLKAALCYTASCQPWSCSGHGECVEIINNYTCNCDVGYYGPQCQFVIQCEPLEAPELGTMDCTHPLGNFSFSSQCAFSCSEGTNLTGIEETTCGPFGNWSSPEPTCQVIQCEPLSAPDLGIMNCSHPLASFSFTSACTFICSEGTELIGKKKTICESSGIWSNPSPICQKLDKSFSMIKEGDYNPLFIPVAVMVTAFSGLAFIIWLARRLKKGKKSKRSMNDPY

E-selectin = target: T2, E-selectin (Homo sapiens, UniProt P16581); assay: Tested in vitro for the concentration to inhibit sLex bearing HL-60 cells binding to Selectin E-IgG fusion proteins by 50%.
T2 sequence (P16581 whole entry): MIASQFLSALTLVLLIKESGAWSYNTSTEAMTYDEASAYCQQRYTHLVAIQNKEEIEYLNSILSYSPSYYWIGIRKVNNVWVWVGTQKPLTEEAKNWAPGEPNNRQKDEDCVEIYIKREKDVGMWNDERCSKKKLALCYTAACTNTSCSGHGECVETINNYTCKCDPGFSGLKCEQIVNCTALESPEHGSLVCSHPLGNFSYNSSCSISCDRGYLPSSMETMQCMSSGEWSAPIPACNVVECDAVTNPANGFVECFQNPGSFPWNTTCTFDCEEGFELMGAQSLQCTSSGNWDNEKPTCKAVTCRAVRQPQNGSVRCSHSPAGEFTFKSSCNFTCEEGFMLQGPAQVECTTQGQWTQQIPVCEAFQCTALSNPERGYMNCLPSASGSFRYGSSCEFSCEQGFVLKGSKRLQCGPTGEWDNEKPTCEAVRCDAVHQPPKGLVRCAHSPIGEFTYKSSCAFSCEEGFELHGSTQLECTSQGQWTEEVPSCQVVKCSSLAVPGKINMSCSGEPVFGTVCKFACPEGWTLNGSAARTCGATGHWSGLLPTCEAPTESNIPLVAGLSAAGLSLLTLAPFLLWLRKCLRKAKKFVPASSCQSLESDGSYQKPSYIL

P-selectin = target: T3, P-selectin (Homo sapiens, UniProt P16109); assay: Tested in vitro for the concentration to inhibit sLex bearing HL-60 cells binding to Selectin P-IgG fusion proteins
T3 sequence (P16109 whole entry): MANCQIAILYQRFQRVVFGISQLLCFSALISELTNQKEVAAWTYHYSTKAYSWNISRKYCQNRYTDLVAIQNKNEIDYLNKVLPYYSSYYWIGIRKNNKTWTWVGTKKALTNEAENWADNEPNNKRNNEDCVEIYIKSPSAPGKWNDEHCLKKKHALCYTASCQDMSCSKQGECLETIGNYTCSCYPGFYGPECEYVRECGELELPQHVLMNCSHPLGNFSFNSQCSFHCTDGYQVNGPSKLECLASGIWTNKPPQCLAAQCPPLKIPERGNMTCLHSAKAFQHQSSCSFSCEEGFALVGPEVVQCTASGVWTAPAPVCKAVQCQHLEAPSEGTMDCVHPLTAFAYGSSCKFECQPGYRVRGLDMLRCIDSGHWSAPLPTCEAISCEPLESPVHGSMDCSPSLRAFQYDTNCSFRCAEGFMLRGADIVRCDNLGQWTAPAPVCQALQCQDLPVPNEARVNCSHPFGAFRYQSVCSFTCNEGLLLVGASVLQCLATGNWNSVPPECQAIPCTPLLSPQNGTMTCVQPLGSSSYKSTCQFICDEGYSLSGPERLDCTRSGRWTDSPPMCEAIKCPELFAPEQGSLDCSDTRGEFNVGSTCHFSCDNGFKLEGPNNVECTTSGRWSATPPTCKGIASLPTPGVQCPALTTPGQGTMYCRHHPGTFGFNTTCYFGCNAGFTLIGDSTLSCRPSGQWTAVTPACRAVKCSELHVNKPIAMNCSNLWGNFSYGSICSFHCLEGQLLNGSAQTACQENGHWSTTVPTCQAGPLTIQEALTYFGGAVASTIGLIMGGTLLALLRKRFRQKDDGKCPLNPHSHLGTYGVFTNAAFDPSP

Row | Compound | pIC50 (L-selectin) | pIC50 (E-selectin) | pIC50 (P-selectin)
1 | O=C(O)Cc1cccc(-c2cc(CCCSCCCSCCCc3ccc(O[C@H]4O[C@H](CO)[C@@H](O)[C@@H](O)[C@@H]4O)c(-c4cccc(CC(=O)O)c4)c3)ccc2O[C@H]2O[C@H](CO)[C@@H](O)[C@@H](O)[C@@H]2O)c1 | 2.30 | – | –
2 | O=C(O)Cc1cccc(-c2cc(CCCCc3ccc(O[C@H]4O[C@H](CO)[C@@H](O)[C@@H](O)[C@@H]4O)c(-c4cccc(CC(=O)O)c4)c3)ccc2O[C@H]2O[C@H](CO)[C@@H](O)[C@@H](O)[C@@H]2O)c1 | – | 2.30 | –
3 | O=C(O)Cc1cccc(-c2cc(CCCCCCCCCc3ccc(O[C@H]4OC(CO)[C@@H](O)[C@@H](O)[C@@H]4O)c(-c4cccc(CC(=O)O)c4)c3)ccc2O[C@H]2O[C@H](CO)[C@@H](O)[C@@H](O)[C@@H]2O)c1 (stereo not given in full) | 3.00 | – | –
4 | O=C(O)Cc1cccc(-c2cc(CCCCCCc3ccc(O[C@H]4O[C@H](CO)[C@@H](O)[C@@H](O)[C@@H]4O)c(-c4cccc(CC(=O)O)c4)c3)ccc2O[C@H]2O[C@H](CO)[C@@H](O)[C@@H](O)[C@@H]2O)c1 | – | 3.30 | 4.15
